Data reported in the NIST ThermoML archive (doi:10.1016/j.jct.2015.03.021).

How the values were obtained:
[1] = 101.33 kPa, Liquid, Vibrating tube method
[2] = excess molar enthalpy (molar enthalpy of mixing); xn = mol fraction of the nth substance listed; conditions: 100 kPa, Liquid, Calvet calorimetry

CCCCOCCCC [dibutyl ether]
[1]
Conditions	mass density [kg/m3]
298.15 K	764.11 ± 0.2
308.15 K	755.91 ± 0.2

CCCCOCCCC [dibutyl ether] + CCCCCO
[2]
Conditions	excess molar enthalpy [kcal/mol]
298.15 K, x1 = 0.0625	0.0339 ± 0.000717
298.15 K, x1 = 0.1224	0.0652 ± 0.00143
298.15 K, x1 = 0.1662	0.0872 ± 0.00191
298.15 K, x1 = 0.2329	0.113 ± 0.00239
298.15 K, x1 = 0.2901	0.142 ± 0.00311
298.15 K, x1 = 0.3528	0.163 ± 0.00359
298.15 K, x1 = 0.4129	0.179 ± 0.00382
298.15 K, x1 = 0.4763	0.195 ± 0.0043
298.15 K, x1 = 0.5409	0.205 ± 0.0043
298.15 K, x1 = 0.6036	0.208 ± 0.00454
298.15 K, x1 = 0.6587	0.207 ± 0.00454
298.15 K, x1 = 0.7219	0.202 ± 0.0043
298.15 K, x1 = 0.7756	0.187 ± 0.00406
298.15 K, x1 = 0.8253	0.17 ± 0.00359
298.15 K, x1 = 0.9031	0.123 ± 0.00263
298.15 K, x1 = 0.9273	0.101 ± 0.00215
308.15 K, x1 = 0.0559	0.0347 ± 0.000717
308.15 K, x1 = 0.1172	0.0707 ± 0.00167
308.15 K, x1 = 0.1759	0.103 ± 0.00215
308.15 K, x1 = 0.228	0.129 ± 0.00287
308.15 K, x1 = 0.2926	0.157 ± 0.00335
308.15 K, x1 = 0.3469	0.178 ± 0.00382
308.15 K, x1 = 0.3922	0.19 ± 0.00406
308.15 K, x1 = 0.4624	0.211 ± 0.00454
308.15 K, x1 = 0.5372	0.224 ± 0.00478
308.15 K, x1 = 0.5914	0.228 ± 0.00478
308.15 K, x1 = 0.6516	0.23 ± 0.00502
308.15 K, x1 = 0.7132	0.224 ± 0.00478
308.15 K, x1 = 0.7681	0.208 ± 0.00454
308.15 K, x1 = 0.8942	0.15 ± 0.00335
308.15 K, x1 = 0.9494	0.0837 ± 0.00191

Numbers after ± are expanded uncertainties.
